According to patent US9221809B2 (dated 2015):
Counter-ions that a name gives are not always drawn.

Amino acid sequences for entries named in this document (tags omitted).
UniProt Q9NWZ3, whole entry: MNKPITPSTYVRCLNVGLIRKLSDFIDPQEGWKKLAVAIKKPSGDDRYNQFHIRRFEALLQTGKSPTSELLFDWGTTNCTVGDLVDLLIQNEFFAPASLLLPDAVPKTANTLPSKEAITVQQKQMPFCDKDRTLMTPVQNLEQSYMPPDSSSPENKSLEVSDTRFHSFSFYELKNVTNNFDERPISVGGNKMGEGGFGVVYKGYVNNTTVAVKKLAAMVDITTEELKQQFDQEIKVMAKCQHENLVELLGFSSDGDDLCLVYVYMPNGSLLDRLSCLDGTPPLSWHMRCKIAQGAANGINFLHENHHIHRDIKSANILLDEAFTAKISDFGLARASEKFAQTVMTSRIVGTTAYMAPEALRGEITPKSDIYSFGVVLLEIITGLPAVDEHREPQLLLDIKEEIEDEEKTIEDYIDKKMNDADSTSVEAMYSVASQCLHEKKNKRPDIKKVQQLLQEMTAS

Molecular target: IRAK4 (Homo sapiens (Human), UniProt Q9NWZ3)
Test: IRAK4 kinase activity, IMAP fluorescence polarization assay
Type: biochemical
Conditions: read-out: IRAK4 IC50; 100 μM ATP, 0.5 nM GST tagged IRAK4

| Compound | IC50 [µM] |
| --- | --- |
| O=c1[nH]c(N2CCOCC2)nc(N[C@@H]2C[C@H](CO)[C@@H](O)[C@H]2O)c1-c1nc2ccccc2s1 [Example 24, 5-(Benzo[d]thiazol-2-yl)-6-(((1R,2S,3R,4R)-2,3-dihydroxy-4-(hydroxymethyl)cyclopentyl)amino)-2-morpholinopyrimidin-4(3H)-one.HCl] | 0.011 |
| O=c1[nH]c(N2CCCCC2)nc(N[C@@H]2C[C@H](CO)[C@@H](O)[C@H]2O)c1-c1nc2ccccc2s1 [Example 26, 5-(Benzo[d]thiazol-2-yl)-6-(((1R,2S,3R,4R)-2,3-dihydroxy-4-(hydroxymethyl)cyclopentyl)amino)-2-(piperidin-1-yl)pyrimidin-4(3H)-one.HCl] | 0.043 |
| CN1CCN(c2nc(N[C@@H]3C[C@H](CO)[C@@H](O)[C@H]3O)c(-c3nc4ccccc4s3)c(=O)[nH]2)CC1 [Example 28, 5-(Benzo[d]thiazol-2-yl)-6-(((1R,2S,3R,4R)-2,3-dihydroxy-4-(hydroxymethyl)cyclopentyl)amino)-2-(4-methylpiperazin-1-yl)pyrimidin-4(3H)-one.HCl] | 0.043 |
| Cc1cc(Nc2nc(N[C@@H]3C[C@H](CO)[C@@H](O)[C@H]3O)c(-c3nc4ccccc4s3)c(=O)[nH]2)cc(C)n1 [Example 50, 5-(Benzo[d]thiazol-2-yl)-6-(((1R,2S,3R,4R)-2,3-dihydroxy-4-(hydroxymethyl)cyclopentyl)amino)-2-((2,6-dimethylpyridin-4-yl)amino)pyrimidin-4(3H)-one.HCl] | 0.073 |
| Cc1nc(N[C@@H]2C[C@H](CO)[C@@H](O)[C@H]2O)c(-c2nc3ccccc3s2)c(=O)[nH]1 [Example 62, 5-(Benzo[d]thiazol-2-yl)-6-((1R,2S,3R,4R)-2,3-dihydroxy-4-(hydroxymethyl)cyclopentylamino)-2-methylpyrimidin-4(3H)-one.HCl] | 0.635 |
| O=c1[nH]c(N2CCOCC2)nc(N[C@@H]2CCCNC2)c1-c1nc2ccccc2s1 [Example 83, (R)-5-(Benzo[d]thiazol-2-yl)-2-morpholino-6-(piperidin-3-ylamino)pyrimidin-4(3H)-one] | 0.019 |
| O=c1[nH]c(N2CCOCC2)nc(N[C@H]2CCCNC2)c1-c1nc2ccccc2s1 [Example 84, (S)-5-(Benzo[d]thiazol-2-yl)-2-morpholino-6-(piperidin-3-ylamino)pyrimidin-4(3H)-one.HCl] | 0.255 |
| O=c1[nH]c(N2CCOCC2)nc(NC2CCNCC2)c1-c1nc2ccccc2s1 [Example 88, 5-(Benzo[d]thiazol-2-yl)-2-morpholino-6-(piperidin-4-ylamino)pyrimidin-4(3H)-one HCl] | 0.121 |
| O=C1CC[C@@H](Nc2nc(N3CCOCC3)[nH]c(=O)c2-c2nc3ccccc3s2)CN1 [Example 89, (R)-5-(Benzo[d]thiazol-2-yl)-2-morpholino-6-(6-oxopiperidin-3-ylamino)pyrimidin-4(3H)-one.HCl] | 0.45 |
| O=c1[nH]c(N2CCOCC2)nc(NC2CCCC(O)C2)c1-c1nc2ccccc2s1 (stereo not drawn) [Example 96, 5-(Benzo[d]thiazol-2-yl)-6-(3-hydroxycyclohexylamino)-2-morpholinopyrimidin-4(3H)-one.HCl] | 1.8 |
| O=c1[nH]c(N2CCOCC2)nc(NC2CCCNC2)c1-c1nc2ccccc2s1 (stereo not drawn) [Example 106, 5-(benzo[d]thiazol-2-yl)-2-morpholino-6-(piperidin-3-ylamino)pyrimidin-4(3H)-one] | 0.244 |
| O=c1[nH]c(N2CCOCC2)nc(N[C@@H]2CCC[C@@H](O)C2)c1-c1nc2ccccc2s1 [Example 108, 5-(benzo[d]thiazol-2-yl)-6-(((1R,3R)-3-hydroxycyclohexyl)amino)-2-morpholinopyrimidin-4(3H)-one.HCl] | 0.454 |
